# Test results taken from article PMC9715707, “Identification of a novel peptide ligand for the cancer-specific receptor mutation EGFRvIII using high-throughput sequencing of phage-selected peptides” (Scientific Reports, 2022).
# Target: T1, EGFRvIII (Homo sapiens, UniProt P00533, DELINS30-297G)
# T1 construct: using purified and active extracellular domain of the EGFRvIII protein; purchased Sino Biological 29662-H08B
# Assay: Microscale thermophoresis, EGFRvIII in solution
# Type: binding
# Conditions: solution phase
# Experimental: Microscale thermophoresis (MST) were performed on a Monolith NT.115 Pico (red-pico) at 25 °C, with 5% LED power and 40% laser power. Proteins were labelled with NT 650 NHS 2nd Gen (NHS chemistry), 10 nM (final concentration) of protein was used in the experiments. A serial of 1:1 dilution with 16 concentrations of peptide was prepared. 5 μL of each dilution step were mixed with 5 μL of the fluorescent molecule. The mixture was filled in premium coated capillaries. […] The highest concentration (final concentration) of FALGEA peptide used for EGFR WT and EGFRvIII experiment was 20 µM and 10 µM respectively. The experiments were performed in an assay buffer containing 1× PBS pH 7.4, 0.005% Tween-20, 1% DMSO. Three independent experiments were performed for each condition.
# Figure S5. Analyses of interactions of EGFR WT (left panel) and EGFRvIII (right panel) in solution phase with the peptides FALGEA (top row) and VLG (bottom row) by MST. MST were performed on Monolith NT.115 Pico (red-pico) at 25 °C, with 5 % LED power and 40 % laser power. Proteins were labelled with NT 650 NHS 2nd Gen (NHS chemistry), 10 nM (final concentration) of protein was used in the experiments. A serial of 1:1 dilution with 16 concentrations of peptide was prepared. 5 μL of each dilution step were mixed with 5 μL of the fluorescent molecule. The mixture was filled in premium coated capillaries. […]
sequence,measurement,setting,value
VLGREEWSTSYW [novel 12-mer peptide ligand of EGFRvIII selected by phage display],"MST binding to EGFRvIII, qualitative","25 °C, 1x PBS pH 7.4, 0.005% Tween-20, 1% DMSO",weaker binding in solution
same,"MST selectivity EGFRvIII versus EGFR WT, qualitative",EGFRvIII compared with EGFR WT,preferentially bind to EGFRvIII rather than EGFR WT
